What was measured:
SMARCA4 [1] = target: T1, SMARCA4 (Homo sapiens, UniProt P51532); test: SMARCA4 degradation in HeLa cells (Western blot); format: cell-based; parameters: endogenous in cells; conditions: 4 h, read-out: Degradation rate of SMARCA4 in HeLa cells (%)
Description: HeLa cells were seeded at 1.2 x 10^5 cells/well in a 6-well plate. 2 mL of EMEM medium supplemented with 10% FBS was added to each well and the culture dish was incubated overnight to allow the cells to adhere. […] The cells were returned to the incubator and incubated for another 4 hours.
(§1) After 4 hours, cells were harvested, the culture medium was aspirated, and the cells were rinsed once with 1 mL/well PBS. The PBS was aspirated, and 40 µL/well of RIPA lysis buffer containing protease inhibitors was added. After lysis and centrifugation, total protein extracts were obtained, and protein concentration in the extracts was determined by BCA assay. Protein electrophoresis was performed by SDS-PAGE, followed by constant voltage electrophoresis at 100 V for 60 minutes and the protein was then transferred to a PVDF membrane. The PVDF membrane was blocked in 5% skim milk powder for 1 hour at room temperature. […] After washing the membrane, secondary antibodies were added and incubated at room temperature for 1 hour (protected from the light). After washing, the membrane was exposed using an Odyssey luminometer. Grayscale analysis of bands was performed using Image Studio software.
(§2) The degradation rate (%) of SMARCA2/4 by the PROTAC compounds of the present invention in HeLa cells and SW1573 cells is shown in Table 10. Table 10 Degradation rate of SMARCA2/4 by PROTAC compounds of the present invention in HeLa cells and SW1573 cells (%)

The chains behind the UniProt entries cited, without tags or fusion partners.
UniProt P51532, whole entry: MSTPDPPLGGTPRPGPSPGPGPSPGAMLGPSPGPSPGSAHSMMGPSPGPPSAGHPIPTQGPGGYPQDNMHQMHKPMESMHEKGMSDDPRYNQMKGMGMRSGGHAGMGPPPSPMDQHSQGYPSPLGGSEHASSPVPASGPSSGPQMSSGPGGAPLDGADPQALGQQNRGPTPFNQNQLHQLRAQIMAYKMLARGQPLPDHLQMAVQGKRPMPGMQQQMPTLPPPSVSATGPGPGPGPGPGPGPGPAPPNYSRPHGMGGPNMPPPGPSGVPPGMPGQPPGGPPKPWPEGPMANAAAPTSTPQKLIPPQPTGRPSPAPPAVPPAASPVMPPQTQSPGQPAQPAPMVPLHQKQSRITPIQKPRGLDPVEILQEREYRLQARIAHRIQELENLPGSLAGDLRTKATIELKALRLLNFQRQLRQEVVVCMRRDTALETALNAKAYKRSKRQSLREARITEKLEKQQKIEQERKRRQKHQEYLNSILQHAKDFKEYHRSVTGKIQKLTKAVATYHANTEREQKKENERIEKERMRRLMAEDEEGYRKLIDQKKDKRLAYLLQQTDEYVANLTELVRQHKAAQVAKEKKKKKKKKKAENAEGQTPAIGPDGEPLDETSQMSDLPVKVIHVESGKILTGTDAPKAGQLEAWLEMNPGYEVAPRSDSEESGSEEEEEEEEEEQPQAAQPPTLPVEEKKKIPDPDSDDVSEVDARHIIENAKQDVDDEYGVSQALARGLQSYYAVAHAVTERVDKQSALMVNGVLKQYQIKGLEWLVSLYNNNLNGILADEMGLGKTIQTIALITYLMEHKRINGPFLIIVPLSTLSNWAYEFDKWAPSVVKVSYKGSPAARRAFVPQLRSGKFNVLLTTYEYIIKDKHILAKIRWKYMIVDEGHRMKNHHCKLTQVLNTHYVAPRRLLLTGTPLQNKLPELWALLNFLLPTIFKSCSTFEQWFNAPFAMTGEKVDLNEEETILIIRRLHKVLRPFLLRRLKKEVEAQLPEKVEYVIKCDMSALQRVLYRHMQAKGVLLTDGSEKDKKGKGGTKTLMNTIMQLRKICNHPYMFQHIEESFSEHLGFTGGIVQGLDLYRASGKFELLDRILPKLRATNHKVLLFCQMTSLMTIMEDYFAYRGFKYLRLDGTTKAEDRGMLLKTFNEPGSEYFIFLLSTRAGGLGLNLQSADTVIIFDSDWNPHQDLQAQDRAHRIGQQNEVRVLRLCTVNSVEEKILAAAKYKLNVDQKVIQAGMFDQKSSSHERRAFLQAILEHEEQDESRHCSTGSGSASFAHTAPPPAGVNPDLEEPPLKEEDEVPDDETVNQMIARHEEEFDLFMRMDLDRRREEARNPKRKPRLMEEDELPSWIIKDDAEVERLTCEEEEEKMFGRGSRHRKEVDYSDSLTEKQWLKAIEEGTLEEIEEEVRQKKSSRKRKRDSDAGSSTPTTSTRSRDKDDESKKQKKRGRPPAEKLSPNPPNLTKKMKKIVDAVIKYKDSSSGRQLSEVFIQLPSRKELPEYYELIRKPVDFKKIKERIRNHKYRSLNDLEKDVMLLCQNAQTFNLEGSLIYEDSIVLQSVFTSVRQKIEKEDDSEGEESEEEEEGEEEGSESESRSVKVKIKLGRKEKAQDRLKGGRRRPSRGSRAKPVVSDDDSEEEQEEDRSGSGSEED

SMARCA4 [2] = target: T1, SMARCA4; test: SMARCA4 degradation in SW1573 cells (Western blot); format: cell-based; parameters: endogenous in cells; host or cells: SW1573; conditions: SW1573, 24 h, read-out: Degradation rate of SMARCA4 in SW1573 cells (%)
Description: SW1573 cells were seeded at 2x10^5Cells/well in a 6-well plate. 2 mL of EMEM medium supplemented with 10% FBS was added to each well and was incubated overnight to allow cell attachment. […] The cells were returned to the incubator and incubated for another 24 hours.
as §1, with “After 24” for “After 4”, “the” for “the culture”
as §2

Structure (SMILES) | Dmax at 0.001 µM (SMARCA4 [1]) [%] | Dmax at 0.08 µM (SMARCA4 [1]) [%] | Dmax at 0.001 µM (SMARCA4 [2]) [%] | Dmax at 0.08 µM (SMARCA4 [2]) [%]
Cn1c(=O)n(C2CCC(=O)NC2=O)c2cc3c(cc21)C1(CCN(C2CC4(CCC(C#Cc5cc(-c6ccccc6O)nnc5N)CC4)C2)CC1)CO3 (stereo not drawn) [SM-P-4, 3-(1'-(7-((3-amino-6-(2-hydroxyphenyl)pyridazin-4-yl)ethynyl)spiro[3.5]nonan-2-yl)-1-methyl-2-oxo-1,2-dihydro-3H,6H-spiro[benzofuro[5,6-d]imidazole-7,4'-piperidin]-3-yl)piperidine-2,6-dione] | 99 | 98 | 99 | 100
Nc1nnc(-c2ccccc2O)cc1C#CC1CCC2(CC1)CC(N1CCC3(CC1)COc1cc(C(=O)N[C@H]4CCC(=O)NC4=O)c(F)cc13)C2 (stereo partly drawn) [SM-P-8] | 30 | 74 | -27 | -11
COc1cc2c(cc1C(=O)N[C@H]1CCC(=O)NC1=O)C1(CCN(C3CC4(CCC(C#Cc5cc(-c6ccccc6O)nnc5N)CC4)C3)CC1)CO2 (stereo partly drawn) [SM-P-14, (S)-1'-(7-((3-amino-6-(2-hydroxyphenyl)pyridazin-4-yl)ethynyl)spiro[3.5]nonan-2-yl)-N-(2,6-dioxopiperidin-3-yl)-6-methoxy-2H-spiro[benzofuran-3,4'-piperidin]-5-carboxamide] | 4 | -21 | 6 | 7
Nc1nnc(-c2ccccc2O)cc1C#CC1CCC2(CC1)CC(N1CCC3(CC1)COc1cc(F)c(C(=O)N[C@H]4CCC(=O)NC4=O)cc13)C2 (stereo partly drawn) [SM-P-21] | 17 | 18 | -7 | 16
Cn1c(=O)n(C2CCC(=O)NC2=O)c2ccc3c(c21)OCC31CCN(C2CC3(CCC(C#Cc4cc(-c5ccccc5O)nnc4N)CC3)C2)CC1 (stereo not drawn) [SM-P-26, 3-(1'-(7-((3-amino-6-(2-hydroxyphenyl)pyridazin-4-yl)ethynyl)spiro[3.5]nonan-2-yl)-1-methyl-2-oxo-1,2-dihydro-3H,7H-spiro[benzofuro[6,7-d]imidazole-6,4'-piperidin]-3-yl)piperidine-2,6-dione] | 97 | 100 | 98 | 97
Cn1c(=O)n(C2CCC(=O)NC2=O)c2ccc3c(c21)OCC31CCN(C[C@H]2CC[C@H](Cn3cc(-c4cc(-c5ccccc5O)nnc4N)cn3)CC2)CC1 (stereo partly drawn) [SM-P-29, 3-(1'-(((1r,4r)-4-((4-(3-amino-6-(2-hydroxyphenyl)pyridazin-4-yl)-1H-pyrazol-1-yl)methyl)cyclohexyl)methyl)-1-methyl-2-oxo-1,2-dihydro-3H,7H-spiro[benzofuro[6,7-d]imidazole-6,4'-piperidin]-3-yl)piperidine-2,6-dione] | 100 | 92 | 100 | 97
Cn1c(=O)n(C2CCC(=O)NC2=O)c2cc3c(cc21)C1(CCN(C[C@H]2CC[C@H](Cn4cc(-c5cc(-c6ccccc6O)nnc5N)cn4)CC2)CC1)CO3 (stereo partly drawn) [SM-P-30, 3-(1'-(((1r,4r)-4-((4-(3-amino-6-(2-hydroxyphenyl)pyridazin-4-yl)-1H-pyrazol-1-yl)methyl)cyclohexyl)methyl)-1-methyl-2-oxo-1,2-dihydro-3H,6H-spiro[benzofuro[5,6-d]imidazole-7,4'-piperidin]-3-yl)piperidine-2,6-dione] | 100 | 94 | 100 | 98
Cn1c(=O)n(C2CCC(=O)NC2=O)c2ccc3c(c21)OCC31CCN(C[C@H]2CC[C@H](n3cc(-c4cc(-c5ccccc5O)nnc4N)cn3)CC2)CC1 (stereo partly drawn) [SM-P-35] | 100 | 100 | 100 | 100
Cn1c(=O)n(C2CCC(=O)NC2=O)c2cc3c(cc21)C1(CCN(C[C@H]2CC[C@H](n4cc(-c5cc(-c6ccccc6O)nnc5N)cn4)CC2)CC1)CO3 (stereo partly drawn) [SM-P-36] | 100 | 97 | 99 | 95
Cn1c(=O)n(C2CCC(=O)NC2=O)c2ccc3c(c21)OCC31CCN(C2CN(c3cc(-c4ccccc4O)nnc3N)C2)CC1 (stereo not drawn) [SM-P-37, 3-(1'-(1-(3-amino-6-(2-hydroxyphenyl)pyridazin-4-yl)azetidin-3-yl)-1-methyl-2-oxo-1,2-dihydro-3H,7H-spiro[benzofuro[6,7-d]imidazole-6,4'-piperidin]-3-yl)piperidine-2,6-dione] | -12 | 15 | – | –
Cn1c(=O)n(C2CCC(=O)NC2=O)c2cc3c(cc21)C1(CCN(C2CN(c4cc(-c5ccccc5O)nnc4N)C2)CC1)CO3 (stereo not drawn) [SM-P-38, 3-(1'-(1-(3-amino-6-(2-hydroxyphenyl)pyridazin-4-yl)azetidin-3-yl)-1-methyl-2-oxo-1,2-dihydro-3H,6H-spiro[benzofuro[5,6-d]imidazole-7,4'-piperidin]-3-yl)piperidine-2,6-dione] | 7 | 26 | 17 | 6

Reference: patent EP4722219A1 (Gan & Lee Pharmaceuticals Co., Ltd., priority 2023, dated 2024)
